System: receptor isolated from the HUVECS plasma membrane (albumin receptor protein)
Assay: Interaction with purified isolated receptor reconstituted into FPE-labelled artificial membranes
Format: binding
Settings: 5 μM human serum albumin
Source text: The following Examples illustrate the behaviour of various peptides and other molecules that promote transcellular transport of therapeutic molecules etc. These studies make use of techniques that show the interactions of molecules with receptors and cell membranes. […] The underlying theory and application of this technique is outlined in: • Wall, J., Ayoub, F. & O'Shea. P. (1995) J. Cell Sci. 108, 2673–2682 • Cladera, J. and O'Shea, P. (1998) Biophys. J. 74, 2434–2442 • Cladera, J., Martin, I., Ruysschaert, J. M. and O'Shea, P. (1999) J. Biol. Chem. 274, 29951–29959 the teaching of all of which is incorporated herein by reference.
FIG. 2 illustrates the interactions of BVS1 with a receptor isolated from the HUVECS plasma membrane and reconstituted into artificial membranes labelled with FPE. At the arrows, 5 μM BVS1 was added. Two separate experiments are shown and offset in the time dimension for clarity. In the second trace, however, addition of BVS1 was preceded by the addition of 5 μM of human serum albumin. […]

## human serum albumin
  binding of human serum albumin to the reconstituted isolated receptor: appears to bind

Reference: patent publication US7049295B2, “Compounds and use thereof to modify transport across cell membranes” (Biotransys Limited, priority 1999, dated 2006)
